Measurements taken from ChEMBL document CHEMBL1139960 (Bioorg Med Chem Lett, 2007).

Experiment: Antagonist activity at GABAC rho1 receptor expressed in Xenopus laevis oocytes assessed as reduction of GABA-induced chloride ion currents
Settings: oocyte

CP(=O)(O)OCCN
pIC50: 4.95

pIC50: −log10 of the molar value.
